Assay results as given in patent US20100008928A1 (Takeda / Millennium, published 2010).
Where two headings read alike, the source gives them in different places.

The chains behind the UniProt entries cited, without tags or fusion partners. Residues count along the entry.
UniProt Q9NQS3, 58-549 limits assumed: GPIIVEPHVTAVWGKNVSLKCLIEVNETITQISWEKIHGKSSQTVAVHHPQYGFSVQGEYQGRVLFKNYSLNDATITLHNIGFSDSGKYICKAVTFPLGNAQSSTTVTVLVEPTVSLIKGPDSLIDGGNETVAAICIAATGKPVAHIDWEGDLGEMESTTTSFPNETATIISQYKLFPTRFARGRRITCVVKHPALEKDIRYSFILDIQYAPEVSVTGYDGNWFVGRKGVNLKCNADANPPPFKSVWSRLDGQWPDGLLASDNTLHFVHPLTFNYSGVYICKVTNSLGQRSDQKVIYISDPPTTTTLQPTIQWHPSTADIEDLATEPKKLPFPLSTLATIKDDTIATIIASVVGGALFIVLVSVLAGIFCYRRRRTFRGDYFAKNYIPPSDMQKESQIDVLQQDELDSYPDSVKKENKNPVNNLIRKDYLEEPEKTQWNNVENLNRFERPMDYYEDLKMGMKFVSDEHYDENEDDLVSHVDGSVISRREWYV

T1: human nectin-4 protein (human, UniProt Q96NY8 32-510)
T1 construct: transient in CHO-K1 from pCMV-Tag4-Nectin-4
T1 sequence: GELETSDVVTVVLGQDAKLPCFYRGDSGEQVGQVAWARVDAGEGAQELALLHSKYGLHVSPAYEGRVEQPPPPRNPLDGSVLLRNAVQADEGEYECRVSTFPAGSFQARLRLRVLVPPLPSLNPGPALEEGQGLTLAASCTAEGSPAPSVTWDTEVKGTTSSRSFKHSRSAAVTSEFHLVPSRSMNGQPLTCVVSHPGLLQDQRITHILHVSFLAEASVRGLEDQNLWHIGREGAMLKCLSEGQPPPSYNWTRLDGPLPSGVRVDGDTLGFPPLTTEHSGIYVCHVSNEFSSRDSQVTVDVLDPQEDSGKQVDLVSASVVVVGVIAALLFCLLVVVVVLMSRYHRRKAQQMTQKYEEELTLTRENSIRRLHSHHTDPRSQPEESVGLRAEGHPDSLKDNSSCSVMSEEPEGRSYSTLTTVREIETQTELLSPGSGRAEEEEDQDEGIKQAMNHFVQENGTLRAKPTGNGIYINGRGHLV

T2: human Nec1-5 protein (human, UniProt P15151 21-417)
T2 construct: transient in CHO-K1 from pCMV-Tag4-Nec1-5; also called Necl-5
T2 sequence: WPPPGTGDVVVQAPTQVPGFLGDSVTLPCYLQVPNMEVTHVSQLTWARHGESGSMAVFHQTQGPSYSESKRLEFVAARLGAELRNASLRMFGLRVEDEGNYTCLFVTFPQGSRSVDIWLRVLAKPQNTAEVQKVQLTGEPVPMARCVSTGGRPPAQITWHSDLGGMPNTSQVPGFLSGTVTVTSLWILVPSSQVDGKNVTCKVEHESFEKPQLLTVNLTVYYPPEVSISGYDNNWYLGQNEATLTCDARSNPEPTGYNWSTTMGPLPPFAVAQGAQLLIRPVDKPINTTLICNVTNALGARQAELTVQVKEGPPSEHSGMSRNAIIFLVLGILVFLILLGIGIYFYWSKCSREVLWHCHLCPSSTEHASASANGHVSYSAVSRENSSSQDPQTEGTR

T3: human nectin-1 protein (human, UniProt Q15223 31-517)
T3 construct: transient in CHO-K1 from pCMV-Tag4-Nectin-1
T3 sequence: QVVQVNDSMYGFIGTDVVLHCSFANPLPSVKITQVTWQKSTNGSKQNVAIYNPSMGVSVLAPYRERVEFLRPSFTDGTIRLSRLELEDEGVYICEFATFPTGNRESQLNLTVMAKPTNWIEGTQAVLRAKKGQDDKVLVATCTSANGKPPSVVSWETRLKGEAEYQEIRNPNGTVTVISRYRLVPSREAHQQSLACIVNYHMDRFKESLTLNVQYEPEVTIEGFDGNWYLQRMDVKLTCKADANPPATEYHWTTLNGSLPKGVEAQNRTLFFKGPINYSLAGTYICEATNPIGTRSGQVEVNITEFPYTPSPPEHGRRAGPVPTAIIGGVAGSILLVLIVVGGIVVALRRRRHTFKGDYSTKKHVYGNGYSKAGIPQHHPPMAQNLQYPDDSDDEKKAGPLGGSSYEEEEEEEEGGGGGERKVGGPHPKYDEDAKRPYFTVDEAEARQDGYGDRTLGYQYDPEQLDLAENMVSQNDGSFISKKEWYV

T4: nectin-2 Ig2 domain-deficient protein (human, UniProt Q92692 32-538)
T4 construct: transient in CHO-K1; also called delta-Ig2; Nectin-2ΔIg2
T4 sequence: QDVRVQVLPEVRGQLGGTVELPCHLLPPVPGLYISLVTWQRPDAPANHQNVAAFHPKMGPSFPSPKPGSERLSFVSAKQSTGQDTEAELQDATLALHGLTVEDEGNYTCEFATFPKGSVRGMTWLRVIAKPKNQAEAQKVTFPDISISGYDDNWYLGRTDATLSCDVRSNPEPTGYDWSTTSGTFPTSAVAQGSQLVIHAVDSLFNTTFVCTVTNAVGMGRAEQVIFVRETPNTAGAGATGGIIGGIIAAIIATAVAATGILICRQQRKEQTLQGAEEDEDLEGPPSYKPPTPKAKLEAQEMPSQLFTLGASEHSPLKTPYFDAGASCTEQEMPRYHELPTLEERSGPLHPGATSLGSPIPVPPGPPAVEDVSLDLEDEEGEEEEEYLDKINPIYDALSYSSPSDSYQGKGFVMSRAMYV


Assays:
Assay in all cases: FCM
human nectin-3 protein [1] = biological target: T5, human nectin-3 protein (human, UniProt Q9NQS3 58-549)
T5 construct: transient in CHO-K1 from pCMV-Tag4-Nectin-3

human nectin-4 protein = biological target: T1, human nectin-4 protein
human Nec1-5 protein = biological target: T2, human Nec1-5 protein
human nectin-1 protein = biological target: T3, human nectin-1 protein
[2] = biological target: T4, nectin-2 Ig2 domain-deficient protein
human nectin-3 protein [3] = biological target: T5, human nectin-3 protein; remark: listed apart in the source
[4] = biological target: T4, nectin-2 Ig2 domain-deficient protein; remark: listed apart in the source

Row | Binder | median fluorescence ratio (human nectin-3 protein [1]) | median fluorescence ratio (human nectin-4 protein) | median fluorescence ratio (human Nec1-5 protein) | median fluorescence ratio (human nectin-1 protein) | median fluorescence ratio [2] | binding result (human nectin-3 protein [3]) | median fluorescence ratio [4]
1 | Nec1-803-2 (antibody, human IgG1, V domains shown) VH: QVQLQESGPGLVKPSETLSLTCTVSGGSISSYYWTWIRQPPGKGLEWIGYIYYSGSTNSNPSLKSRVTISVDTSKNQFSLKLSSVTAADTAVYYCTRDPGEDYNYGMDVWGQGTTVTVSS VL: AIQLTQSPSSLSASVGDRVTITCRASQGISSALAWYQQKPGKAPKLLIYDASSLESGVPSRFSGSGSGTDFTLTISSLQPEDFATYYCQQFNSYPRTFGQGTKVEIK | 1.2 | 1.1 | 1.1 | 1.2 | 5.3 | no binding (tested: 6 µg/mL) | 6.2
2 | Nec1-834-1 (antibody, human IgG1, V domains shown, human IgG1/k from hybridoma FERM BP-10428) VH: QVQLQESGPGLVKPSETLSLTCTVSSASISSYYWSWIRQPPGKGLEWIGYIYYSGSTNYNPSLKSRVTISIDTSKNQFSLKLSSVTAADTAVYYCARDAGEDYSYGMDVWGQGTTVTVSS VL: AIQLTQSPSSLSASVGDRVTITCRASQGISSALAWYQQKPGKAPKLLIYDASSLESGVPSRFSGSGSGTDFTLTISSLQPEDFATYYCQQFNSYRTFGQGTKVEIK | 1.2 | 1.1 | 1 | 1.2 |  | no binding (tested: 6 µg/mL) | 
